Measurements: publication PMC9889916

Chains of the proteins cited; added tags and fusions are not shown. Lines headed by an entry give the natural chain unless they say otherwise; changes in a name come on top. Residues count along the entry.
UniProt Q9Y6K9, 2-329: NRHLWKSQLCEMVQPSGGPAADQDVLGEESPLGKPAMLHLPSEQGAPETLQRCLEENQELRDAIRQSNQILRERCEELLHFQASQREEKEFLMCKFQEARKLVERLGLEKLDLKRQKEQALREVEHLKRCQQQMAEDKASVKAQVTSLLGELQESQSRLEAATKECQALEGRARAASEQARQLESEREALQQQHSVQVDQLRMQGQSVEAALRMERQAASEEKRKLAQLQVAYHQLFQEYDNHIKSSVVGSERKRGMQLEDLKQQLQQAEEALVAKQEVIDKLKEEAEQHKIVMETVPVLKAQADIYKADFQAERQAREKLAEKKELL

Molecular target: untagged Q330X NEMO purified from insect cells (human) (UniProt Q9Y6K9)
Test: other fluorescence titration; steady-state intrinsic fluorescence (excitation 295 nm, emission 333 nm); NEMO fixed at 15 µM or Q330X NEMO at 5 µM, 4×M1-ub varied 0-30 µM (NEMO) or up to 70 µM (Q330X NEMO); 25°C, 10 mM Tris–HCl pH 7.4; fit to an equivalent and independent binding site model

recombinant M1-linked tetra-ubiquitin (from UniProt P0CG48 1-76; P0CG48 1-76; P0CG48 1-76; P0CG48 1-76) (other; other documents disagree on this pair)
Ka: 200000 M⁻¹
stoichiometry N (mol 4×M1-ub per mol Q330X NEMO): 1
